Target: T1, rTRPV1 Y511A (Rattus norvegicus, UniProt O35433, Y511A)
T1 construct: expressed in transfected cells; host or cells: HEK cells
Test: YO-PRO-1 entry in HEK cells expressing rTRPV1 Y511A
Type: cell-based

Protein sequences, listed by entry. Tags and fused reporters are not part of them.
UniProt O35433, whole entry Y511A: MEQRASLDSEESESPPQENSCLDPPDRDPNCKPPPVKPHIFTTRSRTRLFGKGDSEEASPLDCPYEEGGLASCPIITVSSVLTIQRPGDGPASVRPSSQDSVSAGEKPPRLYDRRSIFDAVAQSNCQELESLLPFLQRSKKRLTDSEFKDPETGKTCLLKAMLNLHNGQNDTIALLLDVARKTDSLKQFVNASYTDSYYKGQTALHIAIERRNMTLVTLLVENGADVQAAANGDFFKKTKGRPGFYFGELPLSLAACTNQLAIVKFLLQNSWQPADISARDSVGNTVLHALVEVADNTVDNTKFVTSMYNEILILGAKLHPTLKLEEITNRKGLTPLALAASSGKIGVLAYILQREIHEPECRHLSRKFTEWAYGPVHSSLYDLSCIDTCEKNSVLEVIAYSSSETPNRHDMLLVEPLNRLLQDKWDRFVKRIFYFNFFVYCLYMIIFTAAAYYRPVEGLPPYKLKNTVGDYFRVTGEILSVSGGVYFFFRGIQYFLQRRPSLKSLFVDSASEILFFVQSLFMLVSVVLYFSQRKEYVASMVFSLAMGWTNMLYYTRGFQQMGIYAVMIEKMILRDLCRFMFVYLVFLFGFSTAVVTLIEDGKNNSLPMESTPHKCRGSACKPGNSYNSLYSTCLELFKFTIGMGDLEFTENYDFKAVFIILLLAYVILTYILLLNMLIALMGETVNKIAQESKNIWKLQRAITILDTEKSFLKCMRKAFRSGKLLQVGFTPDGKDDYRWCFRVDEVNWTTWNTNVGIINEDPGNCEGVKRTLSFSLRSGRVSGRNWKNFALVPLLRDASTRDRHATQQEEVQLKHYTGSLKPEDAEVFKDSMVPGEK

## 2-aminoethoxydiphenyl borate [2-APB]
  YO-PRO-1 transport via rTRPV1 Y511A mutant: can facilitate YO-PRO-1 entry
